# Experimental data from patent US20060052301A1, “Splice variants of peptide YY, neuropeptide Y, pancreatic peptide Y and Amylin, and uses thereof” (priority 2004, published 2006).
# Experiment: In-vitro stability study in acetate buffer (Alzet pump model, HPLC)
# Assay type: physicochemical
# Conditions: 20 mM acetate buffer pH 4.0, 37° C., 28 days
# Description: The stability of sterile PYY[3-36] and PYY variant peptide solutions was tested in Alzet pump model during 28 days of incubation at 37° C. (Alzet in-vitro protocol, DURECT Corporation, Calif., USA) following the analysis of the solutions by HPLC. In order to treat ob/ob mice with PYY variants by continuous infusion, the peptides must be soluble and the solution must be stable during the treatment period.
# In the present study, much better stability was achieved when the peptides were dissolved in 20 mM acetate buffer at pH 4.0. Both the WT PYY[3-36] and the PYY variant of the present invention were analyzed in the in-vitro stability studies using two dosages as follows: the low dose of PYY[3-36] was 3.3 mg/ml; the low dose of PYY variant was 3.9 mg/ml; the high dose of PYY[3-36] was 10.6 mg/ml; the high dose of PYY variant was 12.8 mg/ml. In all the cases 2 or 3 different experiments were carried out.
substance,measurement,setting,value
"PYY[3-36]: known wild type Peptide YY form [3-36], SEQ ID NO:67, protease cleavage product of PYY [reference compound]",Purity (%) (average ± stdev),high dose (PYY[3-36] 10.6 mg/ml; PYY variant [3-42] 12.8 mg/ml),85.8 ± 0.1%
same,Purity (%) (average ± stdev),low dose (PYY[3-36] 3.3 mg/ml; PYY variant [3-42] 3.9 mg/ml),86.6 ± 0.02%
